Literature values in patent publication US11365201B2, “Chlorotonil derivatives” (HELMHOLTZ-ZENTRUM FÜR INFEKTIONSFORSCHUNG GMBH, priority 2017, dated 2022).

Conditions: mice, 4 day suppression test, doses of 36-110 mg/kg, solid form with peanut butter, pilot experiments; cited from earlier work

Q: For CC1=C[C@@H](C)C2C3C(=O)C(Cl)(Cl)C(=O)[C@H](C)C(=O)O[C@@H](C)/C=C/C=C\[C@@H](C)[C@@H]3C=C[C@@H]2C1 (stereo partly shown) [Chlorotonil A (ChA), Chlorotonil A, reference compound], which “activity, reduced parasitemia” value is on record?
A: > 90%
